Measurements taken from BindingDB's records for PubMed 1347569 (Stanford University, 1992).

The chains behind the UniProt entries cited, without tags or fusion partners.
UniProt P14842, whole entry: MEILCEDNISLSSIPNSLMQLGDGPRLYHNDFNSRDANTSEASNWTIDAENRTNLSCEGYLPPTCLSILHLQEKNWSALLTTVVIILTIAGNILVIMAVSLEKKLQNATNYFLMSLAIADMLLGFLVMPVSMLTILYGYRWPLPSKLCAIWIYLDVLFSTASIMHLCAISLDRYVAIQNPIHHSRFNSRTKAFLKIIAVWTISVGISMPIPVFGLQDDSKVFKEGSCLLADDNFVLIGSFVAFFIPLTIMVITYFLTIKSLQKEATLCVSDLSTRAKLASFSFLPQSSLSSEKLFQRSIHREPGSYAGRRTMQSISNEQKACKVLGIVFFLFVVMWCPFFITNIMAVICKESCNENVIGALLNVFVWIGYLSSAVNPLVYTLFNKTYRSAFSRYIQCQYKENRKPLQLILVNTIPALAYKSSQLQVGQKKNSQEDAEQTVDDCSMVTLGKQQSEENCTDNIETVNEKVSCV

Legend:
[1] = target: 5-hydroxytryptamine receptor 2A (Rattus norvegicus, UniProt P14842)
[2] = target: T1, 5-hydroxytryptamine receptor 2C (Rattus norvegicus, UniProt P08909)
T1 sequence (P08909 whole entry): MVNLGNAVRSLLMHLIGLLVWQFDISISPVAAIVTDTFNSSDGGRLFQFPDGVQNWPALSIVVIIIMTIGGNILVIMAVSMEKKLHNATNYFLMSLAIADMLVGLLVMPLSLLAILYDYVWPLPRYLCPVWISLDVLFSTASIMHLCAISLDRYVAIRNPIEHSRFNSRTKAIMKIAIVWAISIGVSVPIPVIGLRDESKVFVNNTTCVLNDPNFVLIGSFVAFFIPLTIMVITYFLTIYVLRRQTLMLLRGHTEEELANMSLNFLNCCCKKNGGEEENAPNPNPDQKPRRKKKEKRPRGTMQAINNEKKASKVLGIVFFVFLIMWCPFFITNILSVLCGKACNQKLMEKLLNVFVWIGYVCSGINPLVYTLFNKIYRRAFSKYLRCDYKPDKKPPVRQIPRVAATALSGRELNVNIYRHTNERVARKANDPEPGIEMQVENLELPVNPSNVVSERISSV

Structure (SMILES)	Ki [1]	Ki [2]
CN1CCN(CC/C=C2/c3ccccc3Sc3ccc(S(=O)(=O)N(C)C)cc32)CC1 [MLS000028463]	50 nM	–
Cc1nc2sccn2c(=O)c1CCN1CCC(=C(c2ccc(F)cc2)c2ccc(F)cc2)CC1	3.8 nM	2.7 nM
CN1C[C@@H](NS(=O)(=O)N(C)C)C[C@@H]2c3cccc4c3c(cn4C)C[C@H]21 [MESULERGINE]	–	3 nM
CC1CCN(CCCC(=O)c2ccc(F)cc2)CC1 [CAS_3575-80-2]	31.6 nM	–
